Measurements: patent US7265147B2, “3,6-disubstituted azabicyclo [3.1.0]hexane derivatives useful as muscarinic receptor antagonists” (Ranbaxy Laboratories Limited, priority 2002, dated 2007)
Like-named read-outs stand apart in the source and are kept apart here.

Test system: isolated rat bladder

SMILES	Functional Assay pKB	Functional Assay pKB (rat bladder strips, carbachol concentration response curve)
O=C(NCC#CCN1C[C@H]2C[C@H]2C1)C(O)(c1ccccc1)C1CCCC1 (stereo partly drawn) [Compound No. 10, N-{4-[(1R, 5S)-3-azabicyclo[3.1.0]-hex-3-yl]but-2-ynyl}-2-hydroxy-2-cyclopentyl-2-phenylacetamide]	7.01	–
CCN(CC)CC#CCOC(=O)C(O)(c1ccccc1)C1CCCCC1 (stereo not shown) [Oxybutynin, reference compound]	–	2.0
Cc1ccc(O)c([C@H](CCN(C(C)C)C(C)C)c2ccccc2)c1 [Tolterodine, reference compound]	2.0	–
O=C(NCC#CCN1C[C@H]2C[C@H]2C1)C(O)(c1ccccc1)C1CCCCC1 (stereo partly drawn) [Compound No. 9, N-{4-[(1R, 5S)-3-azabicyclo[3.1.0]-hex-3-yl]but-2-ynyl}-2-hydroxy-2-cyclohexyl-2-phenylacetamide]	6.82	–
